Screening data deposited in PubChem BioAssay by National Center for Advancing Translational Sciences (NCATS).
miR-21 reporter: miR-21 reporter, rising signal | HeLa miR-21 FLuc reporter, luciferase, 48 h | Potency, µM (doses to about 38.3 µM), inactives show at the top dose reporter change, positive = more light | 340,000 tested, under 10 active | AID 2288; active = well fitted rising curve with a large enough effect; inconclusive = small, poorly fitted or top-dose-only effect; inactive = no such curve, though single readings can be large or run the other way;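 note: % of control where 0% means no effect; miR-21 action dims this reporter so a rising signal means less miR-21 action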
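Luminescence from a firefly luciferase reporter carrying a miR-21 binding site downstream, stably expressed under a CMV promoter in HeLa cells that make miR-21 endogenously, reports miRNA modulation after 48 h compound exposure up to approximately 40uM final.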
Nrf2 activator: Nrf2 pathway activation; AREc32 ARE-luciferase reporter (MCF7-derived line), luminescence, 24 h; Potency, µM (series often up to 46.1 µM), for inactives: top-dose activation, actives largely listed as activators; 410,000 compounds, 0.31% hits; further: potency means the concentration at half of the fitted maximal effect; % of control where 0% means no effect; nearly all actives have a fitted effect of over 65% in size
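Steps: seed AREc32_Fluc cells (1000/well, 5% FBS OPTI-MEM); incubate overnight at 37 deg C; add 23 nL compound; incubate 24 hr; add Steady-Glo; hold 30 min RT; read luminescence.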
IL-2 act: IL-2 activation; activation, % (series mostly up to about 46 µM); 360,000 compounds, 0.065% hits; AID 652025; IL-2 activation reporter assay, cell-based qHTS; stimulated with anti-CD3/CD4/CD28 beads; in transgenic mouse T cells; in the data active means activation above about 50%; inconclusive means mostly about 30% to 49%; further: 0% is about no effect
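Readout: EGFP and DsRed signals by fluorescent plate cytometry. Unstimulated transgenic mouse T cells received compound 60 min before antibody-bead stimulation, then incubated 18 h at 37 degrees C.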
Nrf2 block: Nrf2 pathway inhibition; A549 ARE-Fluc reporter, luciferase luminescence, 18-24 h; Potency, µM (highest dose often 46 µM), for the others: at the top dose activity change, negative = inhibition, most hits filed as inhibitors; 360,000 compounds, 2.1% hits; AID 504444; further: potency means the concentration at half of the fitted maximal effect; on the % scale 0 is the no-effect control and ±100 the full control effect; nearly all actives have a fitted effect of over 60% in size
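In this cell-based qHTS, ARE-driven firefly luciferase in A549 cells reports Nrf2 activity; the luminescent signal after BugLite lysis is the measured value, with a prior CellTiter-Fluor read for cell health.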
ClpP mod: qHTS Assay for Activators of ClpP; Potency, µM (top dose mostly 57.5 µM), inactives show at the top dose activity change, negative = active; purified B. subtilis ClpP, FRET peptide cleavage, 20 min; ATP-dependent Clp protease proteolytic subunit (Bacillus subtilis (strain 168)), P80244; 340,000 compounds, 1.9% hits; active means well fitted falling curve with a large enough effect; inconclusive means small, poorly fitted or top-dose-only effect; inactive means no such curve, though single readings can be large or run the other way; further: potency means the concentration at half of the fitted maximal effect; the source files actives as falling curves though it sought activators and does not explain the sign; nearly all actives have a fitted effect of over 65% in size
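Purified B. subtilis ClpP, 10 microg/mL final in Tris/HCl pH8 with KCl, BSA, glycerol and Tween-20, cleaved an Abz/nitrotyrosine-quenched decapeptide. Fluorescence (ex 320, em 430) was read at 0 and 20 min at room temperature. Delta was normalized to 5.8 microM ADEP and DMSO/no-enzyme controls.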
A549 tox: kills or reduces viability of A549 cells in Nrf2 counter-screen; A549 ARE-Fluc cells, CellTiter-Fluor viability, 18-24 h; Potency, µM (series often up to 46 µM), without a hit: at the highest dose activity change, negative = cytotoxicity, usual class: inhibitors; 390,000 compounds, 0.16% hits; further: potency means the concentration at half of the fitted maximal effect; on the % scale 0 is the no-effect control and ±100 the full control effect
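Cytotoxicity counterscreen: CellTiter-Fluor fluorescence was measured in A549 ARE_Fluc cells after 18-24 h of compound exposure in a concentration series. The subsequent BugLite luminescent read reports ARE-luciferase activity.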
* = called active by the depositor. Only some compounds are listed: those with a hit (about 3.7% of all), similar ones and a draw of the others. Unless noted, the call rests on the fitted dose curve; in most records, active means well fitted curve in the direction sought with a large enough effect; inconclusive means small, poorly fitted or top-dose-only effect, or another doubt; inactive means no such curve, though single readings can be large; an effect the other way counts as inactive or inconclusive.

How did C[N+]1(CC(=O)c2ccc(Cl)cc2)CCOCC1 do in these assays?
ClpP mod: 0%

How did O=C(Nc1ccccc1OCc1cc(=O)n2ccccc2n1)Nc1ccccc1C(F)(F)F do in these assays?
miR-21 reporter: -12%; Nrf2 activator: 2%; ClpP mod: 1%; A549 tox: 15%

What do the screens show for `CCCCc1cc(=O)oc2cc(OCC(=O)Nc3ccccn3)ccc12`?
miR-21 reporter: -27%; Nrf2 activator: 13µM*; IL-2 act: 0; Nrf2 block: -9%; ClpP mod: -23%; A549 tox: -6%

How did Cc1cc(=O)oc2cc(OCC(=O)NCc3ccccn3)ccc12 do in these assays?
miR-21 reporter: 0%; Nrf2 activator: 1%; IL-2 act: -2; Nrf2 block: -20%; ClpP mod: 25µM*; A549 tox: 8%

What do the screens show for `Cc1cccc(-c2nnc(SCCOc3ccc4c(C)cc(=O)oc4c3)o2)c1`?
miR-21 reporter: 0%; Nrf2 activator: -1%; IL-2 act: 1; Nrf2 block: inconclusive; ClpP mod: 10µM*; A549 tox: -4%

Results for Cc1cc(=O)oc2cc(OCC(=O)N3CCc4ccccc4C3)ccc12 ?
miR-21 reporter: -5%; Nrf2 activator: 0%; IL-2 act: 0; Nrf2 block: -3%; ClpP mod: 25µM*; A549 tox: -2%

What do the screens show for `CCCCc1cc(=O)oc2cc(OCC(=O)NCc3ccccn3)ccc12`?
miR-21 reporter: 3%; Nrf2 activator: 0%; IL-2 act: -2; Nrf2 block: 10%; ClpP mod: 4%; A549 tox: 2%

How did O=C(NCc1ccccc1Cl)C1CCN(S(=O)(=O)c2ccc3c(c2)CCCN3C(=O)C2CCC2)CC1 do in these assays?
miR-21 reporter: 20%; Nrf2 activator: 3%; ClpP mod: 0%; A549 tox: -8%

What do the screens show for `CC(C)(C)OC(=O)CC(=O)NNC(=O)c1cc2ccccc2[nH]1`?
Nrf2 block: -15%; A549 tox: -6%

How did COC(=O)c1cccc(NC(=S)NCCC2=CCCCC2)c1 do in these assays?
miR-21 reporter: 19%; Nrf2 activator: 4%; IL-2 act: 5; Nrf2 block: 23µM*; ClpP mod: -2%; A549 tox: -8%

3 structures out of the list, sorted by length of the SMILES, smallest number first.
Results for Cc1cc(=O)oc2cc(OCC(=O)N3CCc4ccccc4C3)ccc12 ?
miR-21 reporter: -5%; Nrf2 activator: 0%; IL-2 act: 0; Nrf2 block: -3%; ClpP mod: 25µM*; A549 tox: -2%

How did O=C(Nc1ccccc1OCc1cc(=O)n2ccccc2n1)Nc1ccccc1C(F)(F)F do in these assays?
miR-21 reporter: -12%; Nrf2 activator: 2%; ClpP mod: 1%; A549 tox: 15%

How did O=C(NCc1ccccc1Cl)C1CCN(S(=O)(=O)c2ccc3c(c2)CCCN3C(=O)C2CCC2)CC1 do in these assays?
miR-21 reporter: 20%; Nrf2 activator: 3%; ClpP mod: 0%; A549 tox: -8%

The listing continues:
Results for CCOC(=O)C1=C(CN2CCC(C)CC2)NC(=O)NC1c1ccc(OC(C)C)cc1 (stereo not drawn) ?
miR-21 reporter: 7%; Nrf2 activator: 0%; Nrf2 block: inconclusive; ClpP mod: 1%; A549 tox: -11%

Results for CCOC(=O)C1=C(CN2CCN(c3ccccc3F)CC2)NC(=O)NC1c1ccc(Cl)cc1 (stereo not drawn) ?
miR-21 reporter: -3%; Nrf2 activator: -1%; Nrf2 block: 21µM*; ClpP mod: 0%; A549 tox: -22%

Results for CCOC(=O)C1=C(CN2CCN(C(=O)c3ccco3)CC2)NC(=O)NC1c1ccc(OC)cc1 (stereo not drawn) ?
miR-21 reporter: 2%; Nrf2 activator: 0%; IL-2 act: 2; Nrf2 block: inconclusive; ClpP mod: -1%; A549 tox: 1%

Results for CCOC(=O)C1=C(CN(CC)Cc2ccccc2)NC(=O)NC1c1ccc(OC(C)C)cc1 (stereo not drawn) ?
miR-21 reporter: inconclusive; Nrf2 activator: 0%; Nrf2 block: 18µM*; ClpP mod: -1%; A549 tox: inconclusive

Results for CCOC(=O)C1=C(CN2CCN(c3ccc(Cl)cc3)CC2)NC(=O)NC1c1ccc(F)cc1 (stereo not drawn) ?
miR-21 reporter: inconclusive; Nrf2 activator: 7%; Nrf2 block: inconclusive; ClpP mod: 0%; A549 tox: inconclusive
